Source: patent US9593305B2, “Differentiation of pluripotent stem cells” (Janssen Biotech, Inc., priority 2008, dated 2017)

How the values were obtained:
[1] = tested on: H1 human embryonic stem cells; experiment: Secondary assay: compound combined with individual growth factors or small molecules, no activin A (Example 5, Table 4); type: cell-based; conditions: agent combined with 2.5 μM compound and Wnt3a
Protocol: Clusters of H1 human embryonic stem cells were grown on reduced growth factor […]™ (Invitrogen; Cat #356231)-coated tissue culture plastic. Cells were passaged using collagenase (Invitrogen; Cat #Cat #17104-019) treatment and gentle scraping, washed to remove residual enzyme, and plated with even dispersal at a ratio of 1:1 (surface area) on reduced growth factor […]™-coated 96-well black plates (Packard ViewPlates; PerkinElmer; Cat #6005182) using volumes of 100 μl/well. Cells were allowed to attach as clusters and then recover log phase growth over a 1 to 3 day period, feeding daily with MEF conditioned medium supplemented with 8 ng/ml bFGF (R&D Systems; Cat #233-FB). Plates were maintained at 37° C., 5% CO2 in a humidified box throughout the duration of assay.
Other agents tested were purchased as follows: BMP-7 (Sigma; Cat #B1434), LY294002 (Cayman; Cat 70920), PD98059, U0126, U0124 (EMD Biosciences; Cat #453710), muscimol (Tocris; Cat #0289), biuculline (Tocris; Cat #0130), sodium butyrate (Sigma; Cat #B5887). All growth factors were solubilized in PBS with 0.1% BSA (Sigma; Cat #A7888) and stored frozen at −80° C. Small molecules were solubilized in 100% DMSO (Sigma; Cat #D2650) and stored frozen at −80° C. The compounds were available as 5 mM stocks in 96-well plate format, solubilized in 100% DMSO and stored at −80° C. […]

[2] = tested on: H1 human embryonic stem cells; experiment: Definitive endoderm formation with TGF superfamily members, SOX17 and cell number (Example 14); type: cell-based; conditions: dose titration with Wnt3a, Compound 34, or both
Protocol: Stock cultures of human embryonic stem cells (H1 human embryonic stem cell line) were maintained in an undifferentiated, pluripotent state on reduced growth factor MATRIGEL™-(BD Biosciences; Cat #356231)-coated dishes in MEF conditioned medium with passage on average every four days. Passage was performed by exposing cell cultures to a solution of 1 mg/ml dispase (Invitrogen; Cat #17105-041) for 5 to 7 minutes at 37° C. followed by rinsing the monolayer with MEF conditioned culture medium and gentle scraping to recover cell clusters. Clusters were centrifuged at low speed to collect a cell pellet and remove residual dispase. Cell clusters were split at a 1:3 or 1:4 ratio for routine maintenance culture or a 1:1 ratio for immediate assay. All human embryonic stem cell lines were maintained at passage numbers less than 50 and routinely evaluated for normal karyotype and absence of mycoplasma.
Cell clusters were evenly resuspended in MEF conditioned medium supplemented with 8 ng/ml bFGF and seeded onto reduced growth factor MATRIGEL™-coated 96-well Packard VIEWPLATES (PerkinElmer; Cat #6005182) in volumes of 0.1 ml/well. Daily feeding was conducted by aspirating spent culture medium from each well and replacing with an equal volume of fresh medium. Plates were maintained at 37° C., 5% CO2 throughout assay. […]

B1: BMP-2: member of the BMP family, R&D Systems (protein, UniProt P12643 283-396, looked up)
Bone morphogenetic protein 2: QAKHKQRKRLKSSCKRHPLYVDFSDVGWNDWIVAPPGYHAFYCHGECPFPLADHLNSTNHAIVQTLVNSVNSKIPKACCVPTELSAISMLYLDENEKVVLKNYQDMVVEGCGCR
effect on SOX17 expression [1]: inhibited or had negligible effects on SOX17 expression | cell numbers at the conclusion of assay [2]: significant effect on cell numbers | induction of SOX17 expression compared to the Wnt3a treatment alone [2]: weak or negligible
